Literature values as cited in PMC8087782, “Developing Nanodisc-ID for label-free characterizations of membrane proteins” (Communications Biology, 2021).

Columns and labels:
[1] = target: MalFGK2 (outward-facing) (Escherichia coli) (UniProt P02916); conditions: cited from earlier work
[2] = target: MalFGK2 (inward-facing) (Escherichia coli) (UniProt P02916); conditions: cited from earlier work

Substance: MalE (from UniProt P0AEX9)
- Kd [1]: 5000 nM
- Kd [2]: 80 nM
